Results published in ChEMBL document CHEMBL1137608, “Design of a potent reactivator of tabun-inhibited acetylcholinesterase--synthesis and evaluation of (E)-1-(4-carbamoylpyridinium)-4-(4-hydroxyiminomethylpyridinium)-but-2-ene dibromide (K203)” (2007).

Test system: Rattus norvegicus
Experiment: Toxicity in intramuscular dosed rat after 24 hrs
Details: in vivo, im

Row | SMILES | LD50 [mg/kg]
1 | O/N=C/c1cc[n+](CCC[n+]2ccc(/C=N/O)cc2)cc1.[Br-].[Br-] | 150
2 | O/N=C/c1cc[n+](COC[n+]2ccc(/C=N/O)cc2)cc1.[Cl-].[Cl-] | 211
